The source of these data is US5436254A, “Carbostyril derivatives” (Otsuka Pharmaceutical Company, Ltd., priority 1989, dated 1995).

For the assay, the system named is increase of diastolic pressure caused by Arg-vasopressin. The assay is described as follows: Anti-vasopressor activity in vivo (pith rat, increase of diastolic pressure by Arg-vasopressin). The arrangement: species or system male SD rat. Conditions: test compound intravenous, 3 minutes before Arg-vasopressin (30 mU/kg) intravenous.
For `CC(=O)NCCCOc1ccc(C(=O)N2CCC(N3C(=O)CCc4ccccc43)CC2)cc1`, the “ED50 (dose required to reduce the increase of diastolic pressure caused by Arg-vasopressin to 50 % of its control value)” value came out at 0.2 mg/kg. Take `COc1ccc(C(=O)N2CCC(N3C(=O)CCc4ccccc43)CC2)cc1`: the “ED50 (dose required to reduce the increase of diastolic pressure caused by Arg-vasopressin to 50 % of its control value)” value stood at 0.8 mg/kg. In the case of `CC(=O)NCCCCOc1ccc(C(=O)N2CCC(N3C(=O)CCc4ccccc43)CC2)cc1` it was 0.3 mg/kg; in that of `CC(=O)NCCCCCOc1ccc(C(=O)N2CCC(N3C(=O)CCc4ccccc43)CC2)cc1`, 0.8 mg/kg; in that of `CCOc1ccc(C(=O)N2CCC(N3C(=O)CCc4ccccc43)CC2)cc1`, 0.5 mg/kg.

As to `CN(C)c1ccc(C(=O)N2CCC(N3C(=O)CCc4ccccc43)CC2)cc1`, the “ED50 (dose required to reduce the increase of diastolic pressure caused by Arg-vasopressin to 50 % of its control value)” value is recorded as 1.0 mg/kg.
